Data: ChEMBL document CHEMBL1126647, “Fluorine-18-labeled progestin ketals: synthesis and target tissue uptake selectivity of potential imaging agents for receptor-positive breast tumors” (J Med Chem, 1993)

Test: Partition coefficient (logP)
Type: physicochemical
Details: octanol/water

Which logP does the source give for `CC(=O)[C@H]1CC[C@H]2[C@@H]3CCC4=CC(=O)CC[C@]4(C)[C@H]3CC[C@]12C` [PROGESTERONE] here?
The logP was 3.87.
